{
  "source": "paper PMC6350255",
  "about": "(Journal of medicinal chemistry, 2018)",
  "system": "human β-cells (dispersed human pancreatic islets)",
  "type": "cell-based",
  "data": [
    {"smiles": "COc1ccc2c(c1)[nH]c1c(CO)nccc12", "note": "[Compound 2–2, 1-Hydroxymethyl-7-methoxy-9H-β-carboline]", "values": [
      {"measurement": "human β-cell proliferation, Ki-67 immunolabeling", "result": "comparable to that of harmine"}
    ]}
  ]
}
